Data: patent US6620916B1, “Modified physiologically active proteins and medicinal compositions containing the same” (Ajinomoto Co., Inc., priority 1996, dated 2003)

How the values were obtained:
[1] = test system: mouse-separated hepatocytes; experiment: Uptake of 125I-labeled modified product into hepatocytes; format: cell-based; conditions: 24 nM, 37° C., 0-4 hours
Protocol: The test for binding of a modified product into hepatocytes was conducted, like the binding test, using cells obtained by incubating hepatocytes (total of 6.0×10^7 cells, bioavailability 92%) formed by refluxing 3 mice (C57BL/6, 9W, male) with a collagenase and purifying them through centrifugation at a low rate, on a collagenase-coated plate in amounts of 6×10^5 cells/well in a 10% FBS-containing D-MEM medium (supplied by Gibco, containing 100 U/ml of penicillin, 100 μg/ml of streptomycin and 50 μg/ml of gentamicin) overnight at 37° C. in 5% CO2.
The test for uptake into hepatocytes was also conducted according to the method of Chang et al (T. Chang et al., BBA 942. 57-64 (1988)). The cells which were approximately in the almost confluent state were washed once with a D-MEM medium (pH 7.4) containing 0.1% BSA and 10 mM Hepes, and the buffer was added thereto. The mixture was incubated in 5% CO2 at 37° C. for 30 minutes. One milliliter of 24 nM of (Gal)3-rhIL-2 (1.14×10^7 cpm/μg (calculated as IL-2)), (GalNAc)3-rhIL-2 (1.09×10^7 cpm/μg (calculated as IL-2)) or ASOR (3.16×10^6 cpm/μg) (dissolved in the buffer) which had been ^125I-labeled by the chloramine T method was added thereto, and the incubation was conducted at 37° C. for fixed periods of time (0 minute, 30 minutes, 1 hour, 2 hours and 4 hours). […] The radioactivity by the non-specific binding was subtracted from the radioactivity of 0.8 ml of 1 ml of the 0.1 N NaOH solution containing 0.5% SDS in each well, and the radioactivity of the total amount thereof was calculated from the above-obtained value. The thus-calculated value was defined as an amount of an uptake fraction. Meanwhile, a value obtained by subtracting the radioactivity by the non-specific degradation from the radioactivity of the total trichloroacetic acid-soluble fraction in the medium was defined as an amount of a degradation fraction. […] The total protein amount of the cells was calculated by the Lorry method with respect to 0.1 ml of the solution.

[2] = test system: IL-2 dependent mouse cells “CTLL-2”; experiment: IL-2 biological activity using IL-2 dependent CTLL-2 cells; format: cell-based; conditions: relative to rhIL-2
Protocol: The IL-2 biological activity of (Gal)3-rhIL-2, (GalNAc)3-rhIL-2, PEG12, (Gal)3-rX2-IL-2 and rhIL-2 was measured by the method of Gills et al. (J. Immunol., 120, 2027 (1978)) using IL-2 dependent mouse cells “CTLL-2” (ATCC T1B 214) obtained from ATCC.

FL cells = experiment: Human IFN bioassay, inhibition of cell denaturation effect by viruses; format: cell-based
Protocol: Human IFN bioassay was conducted by the method of Watabe et al. (Lymphokines and Interferones; A Practical Approach, IRL Press, Oxford, 1987) based on inhibition of a cell denaturation effect by viruses using FL cells. That is, when a virus was used in an amount by which to induce 100% cell denaturation, cells was treated in advance with an IFN sample dilute solution. The IFN potency of the sample dilute solution given when the viral cell denaturation was inhibited by 50% was rated as 1 unit (IU). The IFN biological activities of (Gal)3-INF-α and INF-α were calculated on the basis of the potency of the human INF-α standard product (supplied by The Green Cross Corporation).

[3] = Toxicity: organ weights and blood biochemical test after repeated intravenous administration; conditions: for organ weight % of the liver vs physiological saline group / organ weight (% (w/w)) of the lung vs physiological saline group: 40 μg/day; for organ weight % of the liver vs physiological saline group / organ weight (% (w/w)) of the lung vs physiological saline group / organ weight of the kidney: i.v. twice a day for 5 days; for organ weight of the kidney: 1.5-40 μg/day; for AlB-S (albumin) / BUN-S (blood urea nitrogen) / GOT (glutamic oxaloacetic transaminase) / GPT (glutamic pyruvic transaminase) / TBIL-S (total bilirubin) / TP-S (total protein): serum, with increase in dose 1.5-40 μg/day
[4] = mouse, in vivo
[5] = test system: fibrosarcoma (S908, D2. vp2); experiment: Antitumor effect in mice with fibrosarcoma implanted in the liver; format: in vivo, mice (B10D2); conditions: i.v. five times, 0.5 μg/shot from Day 7; Day 28
Protocol: Mice (B10D2, 6W, female) in which a fibrosarcoma (S908, D2. vp2) was implanted in the liver (7.5×10^4 cells/mouse) were used in this test. On Day 7 after the implantation, (Gal)3-rhIL-2 and rhIL-2 were intravenously administered five times in total (0.5 μg/shot) (n=4). On Day 28, the anatomical examination was conducted.

[6] = biological target: T1, asialoglycoprotein receptor (Mus musculus, UniProt P24721+P34927); experiment: Test for inhibition of liver accumulation by simultaneous administration of ASOR; conditions: mice, 50 μg/kg with 1,322 μg/kg ASOR, after 2 minutes
T1 sequence (P34927 1-284): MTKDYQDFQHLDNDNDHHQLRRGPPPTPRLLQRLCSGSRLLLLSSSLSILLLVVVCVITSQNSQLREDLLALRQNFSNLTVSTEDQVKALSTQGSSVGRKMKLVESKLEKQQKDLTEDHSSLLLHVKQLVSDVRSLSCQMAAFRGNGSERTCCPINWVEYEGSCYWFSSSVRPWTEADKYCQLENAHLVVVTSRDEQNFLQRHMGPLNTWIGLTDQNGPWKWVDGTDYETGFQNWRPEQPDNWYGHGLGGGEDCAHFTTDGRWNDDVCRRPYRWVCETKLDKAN
T1 sequence (P24721 1-301): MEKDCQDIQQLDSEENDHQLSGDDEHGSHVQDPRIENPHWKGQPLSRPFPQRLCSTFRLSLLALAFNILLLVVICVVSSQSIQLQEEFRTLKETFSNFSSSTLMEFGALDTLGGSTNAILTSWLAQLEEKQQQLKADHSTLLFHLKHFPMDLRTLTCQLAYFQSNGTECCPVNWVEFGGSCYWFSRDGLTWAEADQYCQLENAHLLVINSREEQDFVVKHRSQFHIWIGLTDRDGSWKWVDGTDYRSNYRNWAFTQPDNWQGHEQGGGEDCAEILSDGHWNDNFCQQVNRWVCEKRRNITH

(GalNAc)3-rhIL-2: rhIL-2 modified with one molecule of branched N-acetylgalactosamine ligand (GalNAc)3 via microbial transglutaminase
uptake component in hepatocytes [1]: taken up in a relatively short period of time | specific activity to rhIL-2 (IL-2 biological activity) [2]: 110%

(Gal)3-INF-α: human INF-α(2b) modified with one molecule of branched galactose ligand (Gal)3
specific activity to unmodified INF-α (FL cells): 82% | IFN biological activity (FL cells; calculated on potency of human INF-α standard product): 1.17×10^8 IU/mg

rhIL-2: recombinant human interleukin-2, unmodified [reference compound]
organ weight % of the liver vs physiological saline group [3]: significant increase | organ weight (% (w/w)) of the lung vs physiological saline group [3]: significant increase | organ weight of the kidney [3]: no increase in the organ weight was observed | AlB-S (albumin) [3]: no increase in the measured value with the increase in the dose was observed | BUN-S (blood urea nitrogen) [3]: no increase in the measured value with the increase in the dose was observed | GOT (glutamic oxaloacetic transaminase) [3]: increase in the measured value was observed | GPT (glutamic pyruvic transaminase) [3]: increase in the measured value was observed | TBIL-S (total bilirubin) [3]: increase in the measured value was observed | TP-S (total protein) [3]: no increase in the measured value with the increase in the dose was observed

(Gal)3-rhIL-2: rhIL-2 with one molecule of branched Gal ligand (Gal)3 bound at Gln-74 via microbial transglutaminase
degradation component [1]: scarcely observed | uptake component in hepatocytes [1]: scarcely observed | toxicity (overall conclusion) [4]: lower than that of rhIL-2 in the lung | tumor size at anatomical examination compared to rhIL-2 group [5]: remarkably minimized | amount accumulated in the liver through simultaneous administration of ASOR [6]: decreased at the same level as that of rhIL-2 | organ weight % of the liver vs physiological saline group [3]: significant increase | organ weight (% (w/w)) of the lung vs physiological saline group [3]: no significant increase | organ weight of the kidney [3]: no increase in the organ weight was observed | AlB-S (albumin) [3]: no increase in the measured value with the increase in the dose was observed | BUN-S (blood urea nitrogen) [3]: no increase in the measured value with the increase in the dose was observed | GOT (glutamic oxaloacetic transaminase) [3]: increase in the measured value was observed | GPT (glutamic pyruvic transaminase) [3]: increase in the measured value was observed | TBIL-S (total bilirubin) [3]: increase in the measured value was observed | TP-S (total protein) [3]: no increase in the measured value with the increase in the dose was observed | specific activity to rhIL-2 (IL-2 biological activity) [2]: 102%
